Laboratory results from ChEMBL document CHEMBL1124917 (1990).

Legend:
P388 [1] = assay: Antitumor activity was determined after intraperitoneal injection on day 1 at a dose of 256 mg/kg following intraperitoneal implant of P388 leukemia cells in CDF1 mice
[2] = (§1) Average weight change of mice was determined on day 6 after intraperitoneal injection on day 1 at a dose of 256 mg/kg following intraperitoneal implant of P388 leukemia cells in CDF1 mice
P388 [3] = assay: Antitumor activity was determined after intraperitoneal injection on day 1 at a dose of 64 mg/kg following intraperitoneal implant of P388 leukemia cells in CDF1 mice
P388 [4] = assay: Average weight change of mice was determined on day 6 after intraperitoneal injection on day 1 at a dose of 32 mg/kg following intraperitoneal implant of P388 leukemia cells in CDF1 mice
P388 [5] = assay: Antitumor activity was determined after intraperitoneal injection on day 1 at a dose of 128 mg/kg following intraperitoneal implant of P388 leukemia cells in CDF1 mice
P388 [6] = assay: Average weight change of mice was determined on day 6 after intraperitoneal injection on day 1 at a dose of 128 mg/kg following intraperitoneal implant of P388 leukemia cells in CDF1 mice
P388 [7] = assay: Average weight change of mice was determined on day 6 after intraperitoneal injection on day 1 at a dose of 64 mg/kg following intraperitoneal implant of P388 leukemia cells in CDF1 mice
P388 [8] = assay: Antitumor activity was determined after intraperitoneal injection on day 1 at a dose of 32 mg/kg following intraperitoneal implant of P388 leukemia cells in CDF1 mice
P388 [9] = assay: as §1

| Structure (SMILES) | T/C (P388 [1]) | AWC [2] | T/C (P388 [3]) | AWC (P388 [4]) | T/C (P388 [5]) | AWC (P388 [6]) | AWC (P388 [7]) | T/C (P388 [8]) | AWC (P388 [9]) |
| --- | --- | --- | --- | --- | --- | --- | --- | --- | --- |
| CC(=O)OC[C@H]1O[C@@H](n2ccc(NP(=O)(N3CC3(C)C)N3CC3(C)C)nc2=O)[C@@H](OC(C)=O)[C@@H]1OC(C)=O (stereo not given in full) | 206% | -1 g | 150% | -0.8 g | 169% | -0.4 g | -0.8 g | 150% |  |
| CC1(C)CN1P(=O)(Nc1ccn([C@H]2C[C@H](O)[C@@H](CO)O2)c(=O)n1)N1CC1(C)C (stereo not given in full) | 150% | -1.6 g |  |  | 128% | -0.7 g |  |  |  |
| CC(=O)OC[C@H]1O[C@@H](n2ccc(NP(=O)(N3CC3(C)C)N3CC3(C)C)nc2=O)C[C@@H]1OC(C)=O (stereo not given in full) | 188% | -1.8 g | 150% | -0.8 g | 163% | -1.1 g | -1.3 g | 150% |  |
| CC1(C)CN1P(=O)(Nc1ccn([C@@H]2O[C@H](CO)[C@@H](O)[C@@H]2O)c(=O)n1)N1CC1(C)C (stereo not given in full) | 150% |  |  |  | 122% | -1 g |  |  | -1.7 g |
| CC(=O)OC[C@H]1O[C@@H](n2ccc(NP(=O)(N3CC3(C)C)N3CC3(C)C)nc2=O)[C@H](OC(C)=O)[C@@H]1OC(C)=O (stereo not given in full) | 150% |  |  |  | 125% | -0.7 g |  |  | -1.6 g |
| CC1(C)CN1P(=O)(Nc1ccn([C@@H]2O[C@H](CO)[C@@H](O)[C@H]2O)c(=O)n1)N1CC1(C)C (stereo not given in full) | 122% | -1.1 g |  |  |  |  |  |  |  |
